We go through four substances from patent US20050075361A1 (priority 2002, published 2005).

Like-named read-outs stand apart in the source and are kept apart here. This is a selection: effects in other tests are not listed, and their absence says nothing.

The test system of the test is male Sprague-Dawley rats. The following applies: for Analgesic duration: IM, plantar test.

The substance Buprenorphine benzoate showed an Analgesic duration (dose 0.6 μM/kg) of 72 h.
Same read-out and setting: under Buprenorphine enanthate stands 72 h; under Buprenorphine pivalate, 48 h.
With Buprenorphine propionate, the “duration of analgesic action” value (different doses 0.6, 6, 60 μM/kg in oil, intramuscular injection) fell in the range of 48 to 60 h. Also, the Analgesic duration reads like this: (dose 0.6 μM/kg) 48 h; (dose 6 μM/kg) 54 h; (dose 60 μM/kg) 54 h.
